Assay results reported in patent US20250042896A1, “POLYCYCLIC COMPOUND AS CBL-B INHIBITOR” (HAINAN SIMCERE ZAIMING PHARMACEUTICAL CO., LTD., priority 2021, published 2025).

Chains of the proteins cited; added tags and fusions are not shown.
UniProt Q13191, whole entry: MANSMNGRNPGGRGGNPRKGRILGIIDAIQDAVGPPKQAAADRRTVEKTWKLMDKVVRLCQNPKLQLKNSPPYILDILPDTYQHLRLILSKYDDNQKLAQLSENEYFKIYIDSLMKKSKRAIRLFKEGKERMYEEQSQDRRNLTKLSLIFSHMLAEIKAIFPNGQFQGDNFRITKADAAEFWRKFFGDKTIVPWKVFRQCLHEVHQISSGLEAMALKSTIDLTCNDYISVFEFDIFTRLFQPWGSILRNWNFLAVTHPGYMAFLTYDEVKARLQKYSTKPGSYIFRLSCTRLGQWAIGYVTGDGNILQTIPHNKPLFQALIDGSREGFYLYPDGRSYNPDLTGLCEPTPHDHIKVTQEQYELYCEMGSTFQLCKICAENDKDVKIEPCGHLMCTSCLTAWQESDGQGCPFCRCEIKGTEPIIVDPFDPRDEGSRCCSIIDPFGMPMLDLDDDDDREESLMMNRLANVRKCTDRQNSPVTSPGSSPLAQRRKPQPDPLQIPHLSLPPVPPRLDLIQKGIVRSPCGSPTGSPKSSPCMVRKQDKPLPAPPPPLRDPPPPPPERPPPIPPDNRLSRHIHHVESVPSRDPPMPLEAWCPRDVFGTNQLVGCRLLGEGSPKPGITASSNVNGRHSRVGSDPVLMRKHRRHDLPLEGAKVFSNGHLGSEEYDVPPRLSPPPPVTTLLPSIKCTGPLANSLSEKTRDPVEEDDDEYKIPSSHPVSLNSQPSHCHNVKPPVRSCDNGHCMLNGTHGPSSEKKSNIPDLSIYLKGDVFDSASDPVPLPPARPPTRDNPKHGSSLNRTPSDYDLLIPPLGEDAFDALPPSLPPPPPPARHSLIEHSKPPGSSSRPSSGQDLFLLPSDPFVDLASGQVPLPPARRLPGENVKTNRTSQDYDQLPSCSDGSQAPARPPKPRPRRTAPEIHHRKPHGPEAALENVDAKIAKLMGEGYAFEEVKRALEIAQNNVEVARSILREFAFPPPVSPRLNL

Legend:
Jurkat T cells = experiment: Jurkat T activation assay (IL-2 release, ELISA); conditions: IL-2 release of Jurkat T cells, Anti-Human CD3/CD28 stimulation, 48 hours, IL-2 ELISA
Description: Experiment purpose: Testing of effect of compounds on IL-2 release and activation of Jurkat T cells
Experimental method: 96-well cell plates (Corning) were coated with 2 μg/mL Anti-Human CD3 Clone OKT3 (BD) at 37° C. for 4 hours. 3-fold serial dilutions of compounds (final concentration 10 μM-4.6 nM, starting concentration 10 μM, 3-fold dilution, 8 points, 8th point being 4.6 nM) and 220 μL of 1.11×10^6/mL Jurkat T cells (ATCC) were incubated for 1 hour, 5 μL of 45 μg/mL Anti-Human CD28 Clone CD28.2 (BD) was added, mixed evenly, 100 μL was transferred to the aforementioned CD3-coated cell plate, cultured in a cell incubator at 37° C. for 48 hours, and the supernatant was collected and the IL-2 release was detected using an IL-2 ELISA kit (BD). EC50 was analyzed using Prism.

[1] = biological target: Cbl-b protein and UbcH5B-Ub (Homo sapiens (Human), UniProt Q13191); experiment: Cbl-b activity assay (HTRF, interaction between Cbl-b protein and UbcH5B-Ub); conditions: inhibition of interaction between Biotin-Cbl-b protein and Eu-Ubquitin-UbcH5B, HTRF signal 665 nm/615 nm
Description: Experiment purpose: Testing of inhibitory activity of compounds on the interaction between Cbl-b protein and UbcH5B-Ub
Experimental method: Eu-Ubquitin-UbcH5B was prepared by incubating Eu-Ubquitin (Cisbio) with UbcH5B (ENZO), E1 (ENZO) at 37° C. for 4 hours. Eu-Ubquitin-UbcH5B was aliquoted and stored at −80° C. Cbl-b activity assay was performed in 384-well plates (Perkin Elmer). 100 nL of 3-fold serial dilutions of compounds (final concentration 10 μM-0.5 nM, starting concentration 10 μM, 3-fold dilution, 10 points, 10th point being 0.5 nM) and 5 μL of 50 nM Biotin-Cbl-b protein (Sigma) were incubated for 1 hour at room temperature, and the reaction buffer was 50 mM HEPES pH 7.0 (Gibco), 100 mM NaCl (Sigma), 0.01% Triton X-100 (Sigma), 0.01% BSA (Sigma) and 1 mM DTT (Invitrogen). 5 μL of Src mixed solution (40 nM Src (R&D), 2 mM ATP (Sigma), 10 mM MgCl2 (Sigma)) was added to the reaction plate and incubated at room temperature for 3 hours. 10 μL of detection solution (12.5 nM Strepdividin-XL665 (Cisbio), 500 nM Eu-Ubquitin-UbcH5B, […] (Invitrogen), 0.004% BSA (Sigma)) was added to the reaction plate, incubated overnight at room temperature, and the HTRF signal (665 nm/615 nm) was read on Envision (Perkin Elmer). IC50 was calculated using IDBS XLfit.

## CC1CC(c2cccc(-c3cnc4c(C(F)(F)F)cc(CN5CCC[C@H](C)C5)cn4c3=O)c2)(c2nncn2C)C1 (single isomer, unassigned)
Jurkat T cells
  EC50: 0.401 µM
[1]
  IC50: 0.0305 µM
